The values that follow come from paper PMC8880779 (International Journal of Molecular Sciences, 2022).

The experiment deals with T1, Human Aβ(1–42)-HiLyte™-Fluor555 (human, UniProt P05067 672-713, HiLyte Fluor555 dye attached to the N-terminus amino acid).
T1 construct: amyloid β(1–42), the 42-residue peptide cut from the amyloid precursor protein, human; numbers count on: the Aβ peptide; also called Aβ(1–42) HiLyte^TM-Fluor555; fluorescent Aβ(1–42); source: bought: AnaSpec (Freemont, CA, USA)
Put plainly: other fluorescence titration; reversion of the fluorescence increase: 100 nM non-labelled Aβ(1–42) added after complex formation of 10 nM Aβ(1–42) HiLyte Fluor555 with 5 nM calbindin-D28k; same buffer, 24–25 °C. Particulars: both partners purified.

B1: calbindin-D28k (natural protein)
chain: MAESHLQSSLITASQFFEIWLHFDADGSGYLEGKELQNLIQELQQARKKAGLELSPEMKTFVDQYGQRDDGKIGIVELAHVLPTEENFLLLFRCQQLKSCEEFMKTWRKYDTDHSGFIETEELKNFLKDLLEKANKTVDDTKLAEYTDLMLKLFDSNNDGKLELTEMARLLPVQENFLLKFQGIKMCGKEFNKAFELYDQDGNGYIDENELDALLKDLCEKNKQDLDINNITTYKKNIMALSDGGKLYRTDLALILCAGDN
notes: Assayed with 50 µM CaCl2; also called CALB1; source: E. coli BL-21 (DE3), pET-15b-CALB1, purified (HisTrap FF, Sephadex G75), His6 tag cut with thrombin
As to B1, the koff (commonly the rate constant with which the complex falls apart) turned out to be 0.0083 s⁻¹.
